# In patent US20040253214A1:
# Target: human EGF receptor on HT1080 cells (human) (UniProt P00533)
# Test: cell-based or functional assay
substance,measurement,value
"EXGaLVMoT chimeric envelope (EGF displayed through a factor Xa-cleavable linker as an N-terminal extension of the Gibbon Ape Leukaemia virus SU glycoprotein), on retroviral vector particles (from UniProt P01133 971-1023; P21415 43-653; P03385 633-665)","Titre of GaLV vectors on EGF-R positive cells, HT1080, +Xa (displayed EGF domain cleaved with factor Xa before infection)",36000 efu/ml
same,"Titre of GaLV vectors on EGF-R positive cells, HT1080, -Xa",3600 efu/ml
